Screening results from PubChem BioAssay.
INS-1E GSIS act: primary screen for activators of insulin secretion dependent on glucose, INS-1E cells, GLuc reporter luminescence. INS-1E GLuc reporter insulin secretion, 2-3 h. activation, % at 16.6 µM. 0.61% of 370,000 active. AID 743287;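 active = lowest replicate activation of at least 40%, so every replicate reaches that level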;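 also: 0% = median of neutral control wells and 100% = median of IBMX positive control wells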
SR-BI DiI-HDL act: SR-BI HDL lipid transfer activation. CHO ldlA[mSR-BI] cells, DiI-HDL uptake fluorescence, 3 h; 100 = double the neutral-control signal. activation, % at 12.5 µM. 0.096% of 320,000 active. AID 504775;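 active = mean replicate activation of at least 60% and every replicate at or above 60%; inconclusive = mean or all-replicate condition met, but not both; inactive = mean below 60% and not all replicates reaching 60%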;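 also: 0% = median plate neutral-control signal and 100% = twice that signal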
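System: LDL receptor-deficient CHO ldlA cells overexpressing murine SR-BI | Timing: 3 h uptake period with compound, 37 °C | Medium: HEPES-buffered (25 mM, pH 7.4) F12 plus 0.5% BSA | Dosing: Single-point compound dose | Signal: Bottom-read fluorescence, 550/595 nm | Read-out: Retained DiI signal reflecting DiI-HDL uptake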
SR-BI DiI inh: inhibitors of mouse SR-BI mediated HDL lipid uptake. AID 488896. 0.96% of 320,000 active. inhibition, % at 12.5 µM. ldlA[mSR-BI] CHO cells, DiI-HDL uptake fluorescence, 3 h;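 active = mean replicate inhibition of at least 70% and a set share of replicates each scoring 70 or more; inconclusive = meets just one of the two criteria; inactive = fails both criteria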;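 also: 0% = median of neutral control wells and 100% = median of positive control wells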
UUG fidelity: yeast start codon fidelity modulation. S. cerevisiae UUG-firefly luciferase reporter, luminescence/redox ratio. activity score, % at 18.7 µM. 0.13% of 350,000 active;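 active = replicate mean at a twofold rise or more, about +100% in these data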;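 also: firefly luciferase made from a UUG start codon reports start codon fidelity; reporter light over untreated wells divided by growth signal over untreated wells; some hits fall short of that in this replicate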
DiI quench: DiI fluorescence quenching in cell-free counter-screen | shares compounds with SR-BI DiI inh | cell-free DiI-HDL fluorescence quenching, 30 min | AC50, µM (top dose mostly 35 µM), inactives show at the top dose activity change, negative = quenching | 20% of 470 active;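 active = quenching, a falling signal, with AC50 below a set limit tied to the top valid dose, actives reach about 32 µM in these data; inconclusive = no clear call, values can overlap the other calls; inactive = rising signal, and the rest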
An asterisk follows results filed as active; ? = inconclusive; / = no result given. In the library only some 1.3% were active in any assay of this set; here they are far more common.

SMILES	INS-1E GSIS act	SR-BI DiI-HDL act	SR-BI DiI inh	UUG fidelity	DiI quench
C/C=C(\C)C(=O)Nc1cccc(C2=NOC3(C2)C[C@@H](C(N)=O)N(C(=O)c2cc([N+](=O)[O-])cc([N+](=O)[O-])c2C)C3)c1 (stereo partly specified)	-7	-30	30	3	/
O=C(NCC[C@@H]1CC[C@@H](NS(=O)(=O)Cc2ccccc2)[C@@H](CO)O1)C1CCOCC1	12	/	/	-2	/
Cc1cc(CN(C)C(=O)C2CCC(=O)N(CCc3cccc(F)c3)C2)on1 (stereo unspecified)	27	12	-12	12	-6%
CCn1ccnc1CN(C)C(=O)C1CCC(=O)N(CCc2cccc(F)c2)C1 (stereo unspecified)	0	13	-13	-18	/
C[C@H](O)C#Cc1cnc2c(c1)C(=O)N([C@H](C)CO)C[C@@H](C)[C@@H](CN(C)Cc1ccccn1)O2	17	/	/	-25	/
O=C(NCc1ccncc1)Nc1cccc(Cl)c1	/	2	-2	-51	/
Cc1c(C(=O)Nc2ccc(Cl)cc2)c2ccccn2c1CCc1ccncc1	-12	-97	97*	-7	32µM*
Cc1c(C(=O)Nc2cccc(Cl)c2)c2ccccn2c1CCc1ccncc1	-7	-94	94*	/	25µM*
COc1ccc2c3c([nH]c2c1)[C@H](CO)N(C(=O)Nc1ccc(F)cc1)CC31CCN(Cc2nccs2)CC1	-15	/	/	/	/
O=C(NCCOC(=O)c1ccc(S(=O)(=O)N2CCOCC2)cc1)c1cccnc1	/	-31	31	-13	/
O=C(OCCNc1ncc(C(F)(F)F)cc1Cl)c1ccc(S(=O)(=O)N2CCOCC2)cc1	-29	-81	81*	-14	1%
COc1ccc2c(c1)-c1c(sn(-c3ccc(OC)c(OC)c3)c1=S)C(C)(C)N2	/	-108	108*	-5	3.1µM*
COc1ccc(-n2sc3c(c2=S)-c2cc(OC)ccc2NC3(C)C)cc1	/	-108	108*	-10	2.5µM*
C[C@@H]1CN([C@H](C)CO)C(=O)c2cc(NC(=O)c3ccncc3)ccc2O[C@@H]1CN(C)S(=O)(=O)c1ccc(F)cc1	18	/	/	-4	/
O=C(Nc1ccn(Cc2c(F)c(F)c(F)c(F)c2F)n1)c1ccc(COc2ccccc2Cl)cc1	-20	-73	73*	-5	-1%
O=C(Nc1ccn(Cc2c(F)c(F)cc(F)c2F)n1)c1ccc(COc2ccc(Cl)cc2Cl)o1	-21	-42	42	-5	/
CCNC(=O)[C@@H]1[C@@H](CO)[C@@H]2Cn3c(ccc(/C=C/c4ccccc4)c3=O)[C@H]1N2C(=O)C1CCCC1	-11	/	/	/	/
O=C(C[C@@H]1CC[C@@H]2[C@H](COC[C@H](O)CN2C(=O)Nc2ccccc2)O1)NC1Cc2ccccc2C1	9	/	/	16	/
CC(=O)Nc1nc(-c2ccccc2)nc(-c2ccccc2OC(C)=O)n1	14	-75	?	-3	4%
CN(C(=O)COC(=O)c1c2c(nc3ccccc13)/C(=C/c1cccc([N+](=O)[O-])c1)CCC2)C1CCS(=O)(=O)C1 (stereo unspecified)	/	-54	54	/	-7%
O=C(COC(=O)c1c2c(nc3ccccc13)/C(=C/c1cccc([N+](=O)[O-])c1)CCC2)NC1CCS(=O)(=O)C1 (stereo unspecified)	9	-18	18	/	/
COc1ccc(NC(=O)N(C)C[C@@H]2Oc3c(NC(=O)Nc4ccc(F)cc4)cccc3C(=O)N([C@H](C)CO)C[C@H]2C)cc1	1	/	/	17	/
Fc1ccc(Cn2nnc(-c3ccc(Cl)cc3)n2)cc1	1	1	-1	3	/
Clc1ccc(Cn2nnc(-c3ccc(N4CCOCC4)cc3)n2)cc1	10	-83	83*	/	-6%

Full records, quoted from the list.
C[C@@H]1CN([C@H](C)CO)C(=O)c2cc(NC(=O)c3ccncc3)ccc2O[C@@H]1CN(C)S(=O)(=O)c1ccc(F)cc1 as listed: INS-1E GSIS act = 18; SR-BI DiI-HDL act = /; SR-BI DiI inh = /; UUG fidelity = -4; DiI quench = /
O=C(Nc1ccn(Cc2c(F)c(F)cc(F)c2F)n1)c1ccc(COc2ccc(Cl)cc2Cl)o1 as listed: INS-1E GSIS act = -21; SR-BI DiI-HDL act = -42; SR-BI DiI inh = 42; UUG fidelity = -5; DiI quench = /

A few values from the results shown.
For DiI quench, `CN(C(=O)COC(=O)c1c2c(nc3ccccc13)/C(=C/c1cccc([N+](=O)[O-])c1)CCC2)C1CCS(=O)(=O)C1` (stereo unspecified) has -7%
For UUG fidelity, `COc1ccc(NC(=O)N(C)C[C@@H]2Oc3c(NC(=O)Nc4ccc(F)cc4)cccc3C(=O)N([C@H](C)CO)C[C@H]2C)cc1` has 17
For UUG fidelity, `O=C(C[C@@H]1CC[C@@H]2[C@H](COC[C@H](O)CN2C(=O)Nc2ccccc2)O1)NC1Cc2ccccc2C1` has 16
For INS-1E GSIS act, `Fc1ccc(Cn2nnc(-c3ccc(Cl)cc3)n2)cc1` has 1
For SR-BI DiI-HDL act, `O=C(Nc1ccn(Cc2c(F)c(F)cc(F)c2F)n1)c1ccc(COc2ccc(Cl)cc2Cl)o1` has -42

Next records follow.
SMILES	INS-1E GSIS act	SR-BI DiI-HDL act	SR-BI DiI inh	UUG fidelity	DiI quench
Cc1ccc(-c2sc(-c3ccccc3)nc2CC(=O)Nc2ccccc2F)cc1	/	-77	77*	2	5%
CC(=O)Nc1cccc(NC(=O)Cc2nc(-c3ccccc3)sc2-c2ccc(C)cc2)c1	6	-60	60	/	/
CN(Cc1ccccc1N1CCCC1)C(=O)c1cc2cc(Cl)ccc2o1	-19	-70	70*	-1	-9%
COC(=O)c1[nH]c2cc(OC)ccc2c1NC(=O)c1ccc2c(c1)OCO2	/	-72	72*	/	12µM*
CCOC(=O)c1[nH]c2ccc(OC)cc2c1NC(=O)c1ccc2c(c1)OCO2	/	-53	53	-6	/
CC(C)(C)N(Cc1ccccc1)C(=O)COC(=O)CN1C(=O)NC2(CCCC2)C1=O	-3	-76	76*	-2	2%
CC(C)(C)N(Cc1ccccc1)C(=O)COC(=O)CN1C(=O)C2CC=CCC2C1=O (stereo unspecified)	-3	14	-14	-1	/
C[C@H]1CN([C@@H](C)CO)C(=O)c2cc(NC(=O)Nc3ccc(F)cc3)ccc2O[C@H]1CN(C)C(=O)Nc1ccc(C(F)(F)F)cc1	4	/	/	-13	/
O=C(CN1CCN(c2ncc(C(F)(F)F)cc2Cl)CC1)NCCNc1ncc(C(F)(F)F)cc1Cl	/	-75	75*	23	-1%
NNC(=O)CN1CCN(c2ncc(C(F)(F)F)cc2Cl)CC1	-9	15	-15	/	/
C[C@@H]1CN([C@H](C)CO)C(=O)CCCn2cc(nn2)CO[C@@H]1CN(C)S(=O)(=O)c1cccs1	-1	/	/	-8	/
CCC(C)c1ccccc1N1CC(C(=O)N2CCN(S(=O)(=O)c3ccccc3Br)CC2)CC1=O (stereo unspecified)	-34	-78	78*	12	-1%
CCC(C)c1ccccc1N1CC(C(=O)Nc2ccccc2N2CCCC2)CC1=O (stereo unspecified)	4	-30	30	7	/
Cc1ccc(C(=O)Nc2ccc(F)c(S(=O)(=O)N3CCOCC3)c2)s1	-8	-34	34	-6	/
Cc1ccc(NC(=O)c2cc(S(=O)(=O)N3CCOCC3)c(Br)s2)cc1	1	-73	?	/	3%
CCCOc1ccc(C(=O)Nc2ccc(S(=O)(=O)N3C[C@@H]4C[C@@H](C3)c3cccc(=O)n3C4)cc2)cc1	2	-57	57	-4	3%
CCOC(=O)C1=CN(c2cccc(F)c2)C=C(C(=O)OCC)C1c1cc(OC)c(O)c([N+](=O)[O-])c1	/	2	-2	-2	7.7µM*
COC(=O)C1=CN(c2ccc(F)cc2)C=C(C(=O)OC)C1c1ccc([N+](=O)[O-])cc1	18	-61	61	-1	/
Cc1cc(C)nc(N2CCC(C(=O)N3CCN(c4cc(Cl)ccc4C)CC3)CC2)n1	-4	-103	102*	2	-2%
CC(C)c1nnc(NC(=O)CCC(=O)N2CCN(C3c4ccccc4-c4ccccc43)CC2)s1	-9	-73	?	-5	-3%
CN(C)CC(=O)N[C@H]1CC[C@@H](CC(=O)O)O[C@H]1CO	20	/	/	/	/
O=C(N[C@@H]1C/C=C\C[C@@H](CC(=O)N(CCO)Cc2ccccc2)C(=O)NCCOC1=O)OCC1c2ccccc2-c2ccccc21	/	-78	78*	-12	-9%
